Measurements as given in US9334257B2, “Methods of purifying and identifying the presence of and levels of procyanidin oligomeric compounds” (The Hershey Company, priority 2012, dated 2016).

Assay: Partition coefficient of cocoa procyanidin oligomers in the CPC biphasic solvent system
Assay type: physicochemical
Details: typical CPC runs as described; biphasic ethyl acetate:ethanol:water (6:1:5), ascending mode; unfermented cocoa bean sample of 8.5 grams
Protocol: A sample is mixed with water and prepared for FCPC with a KROMATON device and rotor. Columns are prepared with biphasic solvent mixture of ethyl acetate:ethanol:water at 6:1:5 ratio. The solvent used can be modified from this ratio by calculating the partition coefficients and comparing to that of the ethyl acetate:ethanol:water example. The FCPC is run in ascending mode for purifying procyanidins, so that the mobile phase is the upper phase in the resting columns.
These quantities are isolated from an unfermented cocoa bean sample of 8.5 grams. In comparison, with a diol HPLC column, 150×30 mm, injecting about 270 mg of the same sample per run yields only about 25 mg of DP2-4 and less than 1 mg of DP11-12. Clearly, the CPC methods of the invention provide commercially viable methods for producing usable quantities of a range of procyanidin oligomers, especially from cocoa sources.

Substance: catechin
- Partition coefficient: 1.06
